Measured values taken from article PMC3581075 (Journal of pharmaceutical sciences, 2011).

What was measured:
human hepatocytes = settings: eprosartan 10 μM, cryopreserved human hepatocytes, 10% serum; rifampin 10 μM
rat hepatocytes = settings: 2 min, 10% serum, rifampin 10 μM

Change of uptake of eprosartan in human hepatocytes compared to normal serum (human hepatocytes): no significant changes
Decrease of uptake of losartan in rat hepatocytes compared to normal serum (rat hepatocytes; losartan 10 μM, sulfaphenazole 1 μM): 66%
Change of uptake of propranolol in rat hepatocytes compared to normal serum (rat hepatocytes; propranolol 10 μM, quinidine 30 μM): no significant differences
SMILES: CO[C@H]1/C=C/O[C@@]2(C)Oc3c(C)c(O)c4c(O)c(c(/C=N/N5CCN(C)CC5)c(O)c4c3C2=O)NC(=O)/C(C)=C\C=C\[C@H](C)[C@H](O)[C@@H](C)[C@@H](O)[C@@H](C)[C@H](OC(C)=O)[C@@H]1C [rifampin]
